Measurements: US9452117B2 (priority 2011, dated 2016)

Legend:
Normal C57BL10 mice = test: Blood lactate after vigorous treadmill exercise; settings: 40 mg/kg body weight after 1 hour treadmill, vs untreated control, FIG. 11
Normal mice = test: Fatigue resistance: voluntary wheel running after forced treadmill run; settings: normal mice 3-4 months old, 2 mg/100 μl/mouse after 1 hour treadmill, 4 days, FIG. 10
mdx mice = test: H&E staining of biceps and tibialis anterior muscles of mdx mice; settings: male mdx mice, gavage 40 mg/kg body weight daily for 3 months, vs control
human skin cells [1] = test: Calcification (calcium-45 accumulation) in human skin cells; type: cell-based; settings: concentrations between 0.0 μM to 5.0 μM, vs control, FIG. 13
[2] = test system: Myf-5, myogenin, follistatin proteins in back and quadriceps muscles; test: Western blot of Myf-5, myogenin, follistatin in muscles of treated mice; settings: 5-month old mice, oral 80 mg/kg body weight, 24 hours after administration, vs control
[3] = test system: myogenin in back, TA, quadriceps, and diaphragm; test: Skeletal muscle myogenesis in normal mice (myogenin Western blot); settings: male C57Black6 normal mice, gavage 40 mg/kg body weight daily for 2 days, 24 hours after second treatment, vs corn oil control
Large^myd mice [4] = test: Life span in Large^myd mice; settings: Large^myd mice from age 16 weeks, oral 80 mg/kg body weight 3 times a week
Large^myd mice [5] = test: Treadmill running exhaustion test, Large^myd mice; settings: 40 mg/kg body weight daily for 3 months, not on weekends, Mean±SEM
[6] = test system: Human skeletal muscle cells; test: Calcification (calcium-45 accumulation) in human skeletal muscle cells; type: cell-based; settings: 10 uM, 48 hours, DMEM serum free medium, FIG. 7
[7] = test system: myogenin and myostatin in biceps and tibialis anterior (TA); test: Western blot of myogenin and myostatin in mdx mice muscles; settings: male mdx mice, oral 80 mg/kg body weight for 90 days, not on weekends, vs control
human skin cells [8] = test: Collagen production in human skin cells (Pricro-Sirius Red Method); settings: concentrations between 0.0 μM to 5.0 μM, vs control, FIG. 12
Large^myd mice [9] = test: Forelimb grip strength, Large^myd mice; settings: 40 mg/kg body weight daily for 3 months, not on weekends, Mean±SEM, control 0.182 ± 0.014

Row | Structure (SMILES) | blood lactate content (Normal C57BL10 mice) | fatigue resistance (voluntary running on wheel after forced treadmill run) (Normal mice) | tissue inflammation and degradation (H&E staining of biceps and tibialis anterior) (mdx mice) | calcification (calcium-45 accumulation) (human skin cells [1]) | expression of Myf-5 (Western blot) [2] | expression of follistatin (Western blot) [2] | expression of myogenin (Western blot) [2] | myogenin expression in back, TA, quadriceps, and diaphragm (Western blot) [3] | average life span (Large^myd mice [4]; control group 37 weeks) | life span range (Large^myd mice [4]; control range 19-50) | Running time (Large^myd mice [5]; control 32.4 ± 10.2) | Running distance (Large^myd mice [5]; control 420.1 ± 170.7) | calcification (calcium-45 accumulation) [6] | myogenin expression in TA and biceps (Western blot) [7] | myostatin levels (Western blot) [7] | collagen level production (human skin cells [8]) | Grip strength (Large^myd mice [9])
1 | CCCC(C)(CO[N+](=O)[O-])CO[N+](=O)[O-] | reduced | helps animals recover from fatigue or tiredness after exercise | significant reduction | significant reduction | increase | increase | increase | increased | 45 weeks | 30-50 weeks | 65.7 ± 13.9 min | 979.2 ± 256.8 meter | reduce calcification | increased | decreased | significant increases | 0.233 ± 0.024 LBF
2 | CCCC(CCC)CO[N+](=O)[O-] [Compound D2, 2-propylpentyl nitrate] |  |  |  |  |  |  |  |  |  |  |  |  |  |  |  | significant increases | 
